# Laboratory results published in ChEMBL document CHEMBL1141367, “Substituted 2-[(4-aminomethyl)phenoxy]-2-methylpropionic acid PPARalpha agonists. 1. Discovery of a novel series of potent HDLc raising agents” (J Med Chem, 2007).
# pEC50: −log10 of the molar value.
# Target: T1, Peroxisome proliferator-activated receptor alpha (Homo sapiens, UniProt Q07869)
# T1 sequence (Q07869 whole entry): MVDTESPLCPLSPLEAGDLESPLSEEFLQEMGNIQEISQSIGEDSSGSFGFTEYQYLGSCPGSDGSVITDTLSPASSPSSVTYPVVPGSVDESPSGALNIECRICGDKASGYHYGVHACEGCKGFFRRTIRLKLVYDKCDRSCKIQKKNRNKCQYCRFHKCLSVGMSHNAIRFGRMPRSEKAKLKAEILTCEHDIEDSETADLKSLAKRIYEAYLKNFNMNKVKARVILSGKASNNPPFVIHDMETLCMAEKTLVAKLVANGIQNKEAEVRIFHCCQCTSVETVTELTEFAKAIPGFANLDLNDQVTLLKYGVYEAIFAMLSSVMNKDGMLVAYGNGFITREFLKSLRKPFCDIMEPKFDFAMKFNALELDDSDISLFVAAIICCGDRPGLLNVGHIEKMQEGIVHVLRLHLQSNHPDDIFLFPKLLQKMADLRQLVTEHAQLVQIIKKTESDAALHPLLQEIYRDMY
smiles,measurement,value
Cc1nc(-c2ccc(C(F)(F)F)cc2)sc1C(=O)NCc1ccc(OC(C)(C)C(=O)O)cc1 [GW590735],pEC50,8.40
